One molecule from patent US20020086860A1, “[1,4]Diazepino [6,7,1-jk] carbazoles and derivatives” (American Home Products Corporation, priority 2000, published 2002) can be followed below.

The chains behind the UniProt entries cited, without tags or fusion partners. Residues count along the entry.
UniProt P28335, 33-458: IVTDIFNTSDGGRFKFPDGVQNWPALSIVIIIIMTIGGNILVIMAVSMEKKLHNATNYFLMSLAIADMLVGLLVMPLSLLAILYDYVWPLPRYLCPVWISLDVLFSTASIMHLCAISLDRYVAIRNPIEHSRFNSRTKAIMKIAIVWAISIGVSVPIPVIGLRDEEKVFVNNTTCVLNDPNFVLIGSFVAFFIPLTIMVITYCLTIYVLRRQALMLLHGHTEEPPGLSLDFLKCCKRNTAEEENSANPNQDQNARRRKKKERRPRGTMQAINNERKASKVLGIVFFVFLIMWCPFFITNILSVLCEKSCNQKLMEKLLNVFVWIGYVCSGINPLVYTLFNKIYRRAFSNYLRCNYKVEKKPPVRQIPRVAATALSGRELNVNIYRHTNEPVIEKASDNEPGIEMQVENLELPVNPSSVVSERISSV

SMILES strings stand for the structures.

In one assay the target is human 5-HT2C receptor (Homo sapiens, UniProt P28335). The experiment in a line: Stimulation of [3H] Inositol Monophosphate production by 5HT2C agonists in transfected CHO cells.
Assay [1] concerns the target T1, human 5-hydroxytryptamine2C (h5HT2C) receptor (Homo sapiens, UniProt P28335).
T1 construct: expressed in transfected cells; host or cells: CHO (Chinese Hamster Ovary) cells; membrane preparation
The experiment in a line: 5HT2C Receptor Binding Test Procedure ([125I]DOI displacement, CHO cell membranes). The conditions noted are these: [125I]DOI binding, h5HT2C in CHO membranes; 95% confidence interval in brackets; read-out: Ki value and 95% confidence interval (reference compounds).

Consider `Clc1cccc(N2CCNCC2)c1` [mCPP, meta-chlorophenylpiperazine, reference compound], for which the EC50 (in general, the concentration giving half of the maximal effect) at human 5-HT2C receptor (read-out: EC50 (reference compounds), [3H]IP1 production, CHO cells with human 5-HT2C) worked out at 46.8 nM. Moreover, the “EMAX (relative to 5-HT)” value at human 5-HT2C receptor (relative to maximally effective 5-HT (10 μM)) was 60%. Besides, in assay [1], the Ki (usually a dissociation constant, usually derived from enzyme kinetics or from competition with a known ligand) was 6.5 nM.
